Amino acid sequences for entries named in this document (tags omitted).
UniProt P37288, whole entry: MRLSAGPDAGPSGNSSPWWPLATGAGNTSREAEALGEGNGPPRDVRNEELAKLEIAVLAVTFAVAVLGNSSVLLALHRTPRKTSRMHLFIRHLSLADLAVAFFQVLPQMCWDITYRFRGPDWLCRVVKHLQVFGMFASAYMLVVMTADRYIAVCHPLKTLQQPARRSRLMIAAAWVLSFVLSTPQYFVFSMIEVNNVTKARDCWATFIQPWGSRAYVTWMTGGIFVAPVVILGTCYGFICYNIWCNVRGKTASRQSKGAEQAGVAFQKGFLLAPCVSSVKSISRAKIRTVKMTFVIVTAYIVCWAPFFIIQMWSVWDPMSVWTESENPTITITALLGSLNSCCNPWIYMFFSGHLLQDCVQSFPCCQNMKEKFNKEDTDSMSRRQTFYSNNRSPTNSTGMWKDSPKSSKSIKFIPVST

In patent US20150376198A1, “MODULATORS OF VASOPRESSIN RECEPTORS WITH THERAPEUTIC POTENTIAL” (priority 2013, published 2015):

Target: human Arginine Vasopressin Receptor 1a (AVPR1a) (Homo sapiens, UniProt P37288)
Experiment: V1a-R Antagonist Assay (AVPR1a-NFAT-bla CHO-K1 beta-lactamase reporter, FRET)
Format: cell-based
Conditions: read-out: V1a-R IC50; Table 4, compounds of formula (I)

| SMILES | IC50 [µM] |
| --- | --- |
| CCC(=O)N(c1ccccc1)C1CCN(C(=O)c2cc3cc(Cl)ccc3[nH]2)CC1 | 36.9 |
| CCC(=O)N(c1ccccc1)C1CCN(C(=O)c2ccc(C#N)cc2)CC1 | > 50 |

Only a part of the results on these compounds is given; other tests are left out.
